Test results from US10562947B2, “Compositions and methods for preventing or treating diseases, conditions or processes characterized by aberrant fibroblast proliferation and extracellular matrix deposition” (MOERAE MATRIX, INC., priority 2011, dated 2020).

Sequences of proteins named here, by UniProt entry; tags and fusion partners are left off. A change or cut given only in a name is not applied to a line headed by its entry. Residues count along the entry.
UniProt P53355: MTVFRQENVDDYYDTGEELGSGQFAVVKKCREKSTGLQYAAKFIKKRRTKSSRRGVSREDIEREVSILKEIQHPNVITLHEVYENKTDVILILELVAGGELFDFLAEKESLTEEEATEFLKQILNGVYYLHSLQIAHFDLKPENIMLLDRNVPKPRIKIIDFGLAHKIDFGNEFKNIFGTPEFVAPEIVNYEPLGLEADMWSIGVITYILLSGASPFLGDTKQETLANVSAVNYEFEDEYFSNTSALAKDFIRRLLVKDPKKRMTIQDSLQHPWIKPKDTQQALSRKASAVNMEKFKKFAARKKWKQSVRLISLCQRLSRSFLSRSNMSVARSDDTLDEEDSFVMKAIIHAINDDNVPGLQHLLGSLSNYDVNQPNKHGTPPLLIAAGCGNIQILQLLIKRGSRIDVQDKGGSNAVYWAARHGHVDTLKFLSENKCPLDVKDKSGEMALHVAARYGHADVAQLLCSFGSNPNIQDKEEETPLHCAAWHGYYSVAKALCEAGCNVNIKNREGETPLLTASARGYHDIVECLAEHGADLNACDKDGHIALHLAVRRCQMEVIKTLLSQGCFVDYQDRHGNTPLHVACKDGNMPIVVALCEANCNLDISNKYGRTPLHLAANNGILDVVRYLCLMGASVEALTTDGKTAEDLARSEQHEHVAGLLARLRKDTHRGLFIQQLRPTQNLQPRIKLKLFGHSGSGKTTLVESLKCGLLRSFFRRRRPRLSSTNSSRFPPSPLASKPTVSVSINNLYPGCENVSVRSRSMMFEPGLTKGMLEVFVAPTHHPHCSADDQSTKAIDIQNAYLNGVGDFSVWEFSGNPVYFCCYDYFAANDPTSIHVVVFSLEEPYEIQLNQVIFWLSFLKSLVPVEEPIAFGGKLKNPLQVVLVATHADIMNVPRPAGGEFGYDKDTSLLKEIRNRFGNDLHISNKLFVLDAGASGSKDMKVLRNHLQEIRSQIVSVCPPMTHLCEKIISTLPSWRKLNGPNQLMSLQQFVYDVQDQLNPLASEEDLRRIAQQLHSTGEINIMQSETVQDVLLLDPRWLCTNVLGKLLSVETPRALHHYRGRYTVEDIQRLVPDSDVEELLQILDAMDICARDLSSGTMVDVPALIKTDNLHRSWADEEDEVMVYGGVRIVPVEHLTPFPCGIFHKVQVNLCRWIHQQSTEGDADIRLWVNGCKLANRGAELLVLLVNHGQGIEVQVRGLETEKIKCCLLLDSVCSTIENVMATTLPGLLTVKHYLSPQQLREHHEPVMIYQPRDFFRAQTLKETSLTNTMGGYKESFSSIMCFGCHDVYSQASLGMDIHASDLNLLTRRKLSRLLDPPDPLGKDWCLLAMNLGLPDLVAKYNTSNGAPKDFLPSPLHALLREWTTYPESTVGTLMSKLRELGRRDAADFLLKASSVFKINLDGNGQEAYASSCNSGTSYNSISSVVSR
UniProt Q9H1R3, 2-596 limits assumed: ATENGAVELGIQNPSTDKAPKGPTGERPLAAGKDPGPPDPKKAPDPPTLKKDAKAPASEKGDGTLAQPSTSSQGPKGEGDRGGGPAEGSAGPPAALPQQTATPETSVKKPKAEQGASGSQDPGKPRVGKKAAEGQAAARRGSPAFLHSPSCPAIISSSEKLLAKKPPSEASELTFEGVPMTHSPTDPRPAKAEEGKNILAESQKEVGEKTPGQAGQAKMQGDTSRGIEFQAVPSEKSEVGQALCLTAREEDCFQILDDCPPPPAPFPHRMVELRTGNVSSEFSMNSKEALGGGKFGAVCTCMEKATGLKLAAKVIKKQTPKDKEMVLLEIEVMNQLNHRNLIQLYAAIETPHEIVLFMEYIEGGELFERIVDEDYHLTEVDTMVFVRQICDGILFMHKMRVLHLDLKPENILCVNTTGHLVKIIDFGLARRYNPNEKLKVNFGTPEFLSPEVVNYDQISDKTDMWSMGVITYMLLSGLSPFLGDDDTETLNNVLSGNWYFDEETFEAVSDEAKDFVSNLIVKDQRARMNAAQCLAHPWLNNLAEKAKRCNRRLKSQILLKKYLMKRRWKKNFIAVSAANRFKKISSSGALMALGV
UniProt Q9NQU5: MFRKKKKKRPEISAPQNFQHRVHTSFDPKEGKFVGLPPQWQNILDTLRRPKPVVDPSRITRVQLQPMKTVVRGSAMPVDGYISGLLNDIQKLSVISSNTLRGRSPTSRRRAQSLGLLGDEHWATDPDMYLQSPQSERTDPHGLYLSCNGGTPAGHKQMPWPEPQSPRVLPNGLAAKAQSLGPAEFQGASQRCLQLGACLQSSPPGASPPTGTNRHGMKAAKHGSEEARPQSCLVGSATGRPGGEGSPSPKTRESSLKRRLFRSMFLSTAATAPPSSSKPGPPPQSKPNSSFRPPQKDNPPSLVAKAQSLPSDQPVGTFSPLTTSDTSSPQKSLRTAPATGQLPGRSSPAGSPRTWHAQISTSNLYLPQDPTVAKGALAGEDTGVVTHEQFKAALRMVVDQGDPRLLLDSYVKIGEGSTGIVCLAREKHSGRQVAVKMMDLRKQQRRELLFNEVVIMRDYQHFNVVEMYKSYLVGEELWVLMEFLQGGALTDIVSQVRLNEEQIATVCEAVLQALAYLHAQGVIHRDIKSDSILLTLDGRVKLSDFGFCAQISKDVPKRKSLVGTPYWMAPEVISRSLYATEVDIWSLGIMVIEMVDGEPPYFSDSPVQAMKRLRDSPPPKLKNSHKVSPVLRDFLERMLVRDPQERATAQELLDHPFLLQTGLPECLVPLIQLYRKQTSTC
UniProt Q9P0L2: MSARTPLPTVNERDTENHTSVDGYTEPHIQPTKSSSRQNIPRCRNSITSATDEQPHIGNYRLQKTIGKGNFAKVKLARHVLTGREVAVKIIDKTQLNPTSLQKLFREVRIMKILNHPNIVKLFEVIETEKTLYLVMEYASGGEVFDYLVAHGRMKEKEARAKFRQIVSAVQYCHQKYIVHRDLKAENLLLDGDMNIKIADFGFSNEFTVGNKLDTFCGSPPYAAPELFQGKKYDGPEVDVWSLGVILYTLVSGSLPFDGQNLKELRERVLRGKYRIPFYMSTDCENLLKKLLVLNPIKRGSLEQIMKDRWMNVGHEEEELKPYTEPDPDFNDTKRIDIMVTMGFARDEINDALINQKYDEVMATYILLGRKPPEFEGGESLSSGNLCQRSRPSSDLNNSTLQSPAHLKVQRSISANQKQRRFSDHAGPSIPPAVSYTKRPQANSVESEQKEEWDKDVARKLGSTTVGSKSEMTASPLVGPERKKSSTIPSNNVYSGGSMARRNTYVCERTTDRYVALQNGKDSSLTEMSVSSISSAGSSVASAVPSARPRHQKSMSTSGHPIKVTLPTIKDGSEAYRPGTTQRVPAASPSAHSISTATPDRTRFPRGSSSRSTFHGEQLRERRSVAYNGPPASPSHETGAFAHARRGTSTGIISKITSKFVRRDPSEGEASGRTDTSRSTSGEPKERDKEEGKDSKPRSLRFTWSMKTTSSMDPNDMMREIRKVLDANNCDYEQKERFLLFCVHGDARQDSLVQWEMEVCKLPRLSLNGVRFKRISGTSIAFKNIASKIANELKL
UniProt P06239: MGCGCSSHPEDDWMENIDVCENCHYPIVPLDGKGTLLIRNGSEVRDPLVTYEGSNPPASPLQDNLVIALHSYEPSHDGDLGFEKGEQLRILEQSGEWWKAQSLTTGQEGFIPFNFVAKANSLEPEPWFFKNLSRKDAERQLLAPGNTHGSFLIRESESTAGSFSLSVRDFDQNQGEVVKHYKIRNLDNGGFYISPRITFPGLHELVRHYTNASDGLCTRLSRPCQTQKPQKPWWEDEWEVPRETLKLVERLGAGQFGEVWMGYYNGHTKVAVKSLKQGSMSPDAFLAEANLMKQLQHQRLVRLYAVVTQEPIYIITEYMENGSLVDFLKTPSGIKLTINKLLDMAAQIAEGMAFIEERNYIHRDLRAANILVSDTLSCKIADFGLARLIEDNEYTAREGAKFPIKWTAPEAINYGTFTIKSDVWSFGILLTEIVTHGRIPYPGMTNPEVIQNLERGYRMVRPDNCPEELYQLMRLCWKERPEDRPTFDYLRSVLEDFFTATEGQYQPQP
UniProt Q16539, whole entry: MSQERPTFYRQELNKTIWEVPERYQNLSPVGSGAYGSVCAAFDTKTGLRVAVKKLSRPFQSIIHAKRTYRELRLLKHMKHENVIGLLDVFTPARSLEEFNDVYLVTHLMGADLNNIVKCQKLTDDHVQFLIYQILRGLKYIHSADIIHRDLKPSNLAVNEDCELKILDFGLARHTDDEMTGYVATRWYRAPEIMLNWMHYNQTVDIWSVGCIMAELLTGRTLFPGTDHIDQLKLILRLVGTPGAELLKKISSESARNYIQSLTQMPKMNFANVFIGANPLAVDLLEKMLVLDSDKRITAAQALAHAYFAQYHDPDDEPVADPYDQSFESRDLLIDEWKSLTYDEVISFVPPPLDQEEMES
UniProt P35916, 25-1363: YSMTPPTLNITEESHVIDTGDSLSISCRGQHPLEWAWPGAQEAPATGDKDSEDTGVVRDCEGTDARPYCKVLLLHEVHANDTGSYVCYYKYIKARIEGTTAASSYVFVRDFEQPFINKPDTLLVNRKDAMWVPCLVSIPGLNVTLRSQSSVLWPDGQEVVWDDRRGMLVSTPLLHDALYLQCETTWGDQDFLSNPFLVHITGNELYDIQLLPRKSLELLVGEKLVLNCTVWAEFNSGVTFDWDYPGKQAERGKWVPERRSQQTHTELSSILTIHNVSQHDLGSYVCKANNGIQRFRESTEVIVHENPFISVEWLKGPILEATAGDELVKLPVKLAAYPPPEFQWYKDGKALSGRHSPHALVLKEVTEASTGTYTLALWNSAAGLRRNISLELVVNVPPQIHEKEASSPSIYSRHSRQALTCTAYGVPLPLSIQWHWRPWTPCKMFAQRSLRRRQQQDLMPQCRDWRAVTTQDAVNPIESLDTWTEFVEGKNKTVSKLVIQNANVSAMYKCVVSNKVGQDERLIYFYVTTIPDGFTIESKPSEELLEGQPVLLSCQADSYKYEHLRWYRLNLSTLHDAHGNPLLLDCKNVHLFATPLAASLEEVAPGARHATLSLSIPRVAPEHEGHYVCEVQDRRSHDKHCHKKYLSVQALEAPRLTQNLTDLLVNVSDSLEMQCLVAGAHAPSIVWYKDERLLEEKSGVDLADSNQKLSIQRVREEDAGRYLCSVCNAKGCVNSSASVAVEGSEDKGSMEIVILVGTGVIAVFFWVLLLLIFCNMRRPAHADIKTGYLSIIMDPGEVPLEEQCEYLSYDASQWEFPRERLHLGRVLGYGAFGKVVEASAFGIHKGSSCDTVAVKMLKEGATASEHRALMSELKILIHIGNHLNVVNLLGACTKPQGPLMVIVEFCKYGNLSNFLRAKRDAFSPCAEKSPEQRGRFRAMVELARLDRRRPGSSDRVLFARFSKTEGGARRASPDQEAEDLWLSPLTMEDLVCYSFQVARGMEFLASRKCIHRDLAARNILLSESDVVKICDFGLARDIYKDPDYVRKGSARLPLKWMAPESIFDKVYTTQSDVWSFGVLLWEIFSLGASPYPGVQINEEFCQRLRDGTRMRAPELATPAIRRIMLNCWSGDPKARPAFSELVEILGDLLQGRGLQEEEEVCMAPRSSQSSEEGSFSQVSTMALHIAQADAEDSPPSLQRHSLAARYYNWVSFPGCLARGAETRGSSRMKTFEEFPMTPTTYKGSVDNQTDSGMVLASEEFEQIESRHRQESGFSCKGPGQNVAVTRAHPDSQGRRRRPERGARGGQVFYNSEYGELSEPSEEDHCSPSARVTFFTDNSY

Legend:
Assay in all cases: Kinase Profiling Assay
Format in all cases: biochemical
Details in all cases: 100 μM peptide
DAPK1(h) = DAPK1(h) (Homo sapiens, UniProt P53355)
Experimental: (§1) Every kinase activity measurement was conducted in duplicate.
(§2) In addition to determining the IC50 of the compound, the specificity of MK2 inhibitory peptides was assessed by examining activities of all 266 human kinases available for testing in the Millipore kinase profiling service (Table 1).

MLCK(h) = MLCK(h) (Homo sapiens, UniProt Q9H1R3)
Experimental: as §1, §2

PAK6(h) = PAK6(h) (Homo sapiens, UniProt Q9NQU5)
Experimental: as §1, §2

HIPK1(h) = molecular target: T1, HIPK1(h) (Homo sapiens, UniProt Q86Z02)
T1 construct: purchased Millipore
Experimental: as §1, §2

EphA3(h) = molecular target: T2, EphA3(h) (Homo sapiens, UniProt P29320)
T2 sequence (P29320 21-983): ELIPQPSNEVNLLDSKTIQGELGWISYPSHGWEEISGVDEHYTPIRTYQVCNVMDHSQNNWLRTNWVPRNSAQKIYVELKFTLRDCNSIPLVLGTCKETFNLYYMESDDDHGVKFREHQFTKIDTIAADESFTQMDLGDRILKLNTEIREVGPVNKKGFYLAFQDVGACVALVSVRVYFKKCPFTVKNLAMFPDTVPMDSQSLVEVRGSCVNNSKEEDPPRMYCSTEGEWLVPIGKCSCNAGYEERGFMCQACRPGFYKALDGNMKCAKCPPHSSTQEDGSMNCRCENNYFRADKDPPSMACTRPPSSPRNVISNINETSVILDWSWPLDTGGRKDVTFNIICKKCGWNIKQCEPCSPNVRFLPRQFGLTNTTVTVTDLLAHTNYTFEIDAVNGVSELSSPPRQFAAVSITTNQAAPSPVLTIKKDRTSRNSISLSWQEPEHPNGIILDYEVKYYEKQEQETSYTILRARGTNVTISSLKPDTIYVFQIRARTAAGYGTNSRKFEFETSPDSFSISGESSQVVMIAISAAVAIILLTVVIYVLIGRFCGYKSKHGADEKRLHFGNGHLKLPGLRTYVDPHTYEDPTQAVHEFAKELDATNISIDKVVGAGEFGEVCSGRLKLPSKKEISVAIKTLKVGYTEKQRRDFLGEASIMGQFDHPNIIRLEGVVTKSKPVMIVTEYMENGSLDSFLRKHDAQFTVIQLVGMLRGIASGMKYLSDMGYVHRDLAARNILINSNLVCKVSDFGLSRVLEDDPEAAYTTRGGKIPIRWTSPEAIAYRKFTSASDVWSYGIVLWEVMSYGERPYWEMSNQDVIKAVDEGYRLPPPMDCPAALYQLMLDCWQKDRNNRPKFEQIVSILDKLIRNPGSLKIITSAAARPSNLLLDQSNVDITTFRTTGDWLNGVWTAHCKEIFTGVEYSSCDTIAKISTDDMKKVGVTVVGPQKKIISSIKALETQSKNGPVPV
Experimental: as §1, §2

MARK1(h) = MARK1(h) (Homo sapiens, UniProt Q9P0L2)
Experimental: as §1, §2

Lck(h) = Lck(h) (Homo sapiens, UniProt P06239)
Experimental: as §1, §2

SAPK2a(h) = SAPK2a(h) (Homo sapiens, UniProt Q16539)
Experimental: as §1, §2

PRAK(h) = molecular target: T3, PRAK(h) (Homo sapiens, UniProt Q8IW41)
T3 construct: purchased Millipore (IC50 Profiler Express service)
T3 sequence (Q8IW41 1-473): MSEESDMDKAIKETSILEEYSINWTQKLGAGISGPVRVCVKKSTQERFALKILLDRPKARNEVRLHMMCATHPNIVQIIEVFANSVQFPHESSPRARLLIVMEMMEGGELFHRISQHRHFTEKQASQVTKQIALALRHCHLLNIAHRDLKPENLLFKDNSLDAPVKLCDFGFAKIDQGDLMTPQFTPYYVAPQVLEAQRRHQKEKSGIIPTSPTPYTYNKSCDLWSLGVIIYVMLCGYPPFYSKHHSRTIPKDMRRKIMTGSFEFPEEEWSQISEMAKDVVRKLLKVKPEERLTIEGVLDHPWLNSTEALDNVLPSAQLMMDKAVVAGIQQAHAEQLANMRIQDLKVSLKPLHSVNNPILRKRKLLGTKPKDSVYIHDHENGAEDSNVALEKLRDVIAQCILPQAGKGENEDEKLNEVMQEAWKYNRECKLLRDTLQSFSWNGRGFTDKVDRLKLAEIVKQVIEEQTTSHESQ
Experimental: as §1, §2

MRCKα(h) = MRCKα(h) (Homo sapiens, UniProt Q5VT25)
Experimental: as §1, §2

F1t4(h) = F1t4(h) (Homo sapiens, UniProt P35916)
Experimental: as §1, §2

Abl(M351T)(h) = Abl(M351T)(h) (Homo sapiens, UniProt P00519, M351T)
Experimental: as §1, §2

YARAAARQARAKALNRQLGVA (Mammalian) [MMI-0200]
DAPK1(h) % activity (DAPK1(h)): 113%
MLCK(h) % activity (MLCK(h)): 103%
PAK6(h) % activity (PAK6(h)): 105%
HIPK1(h) % activity (HIPK1(h)): 115%
EphA3(h) % activity (EphA3(h)): 117%
MARK1(h) % activity (MARK1(h)): 102%
Lck(h) % activity (Lck(h)): 113%
SAPK2a(h) % activity (SAPK2a(h)): 107%
PRAK(h) % activity (PRAK(h)): 115%
MRCKα(h) % activity (MRCKα(h)): 103%
F1t4(h) % activity (F1t4(h)): 105%
Abl(M351T)(h) % activity (Abl(M351T)(h)): 119%
